Many of the other results were omitted from the sample, so hits are more common in it than they were.
Rango complex inh: inhibitors of Rango-importin beta complex formation; Q14974; Rango CFP/YFP FRET sensor + importin beta, 45 min; Potency, µM (top dose mostly 92.2 µM), inactives show at the highest dose inhibition of complex formation; 0.031% of 340,000 active;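 note: potency is the fitted concentration of half-maximal effect; 0% = DMSO wells and 100% = buffer wells lacking importin beta; nearly all actives have a fitted effect of over 15% in size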
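FRET biosensor Rango (snurportin 1 IBB between N-terminal EYFP and C-terminal Cerulean), 50 nM in PBS/1 mM DTT/0.02% Tween-20/0.1% BSA, preincubated 5 min RT with compound; 0.125 microM importin beta added, 45 min RT, CFP/YFP FRET ratio read.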
CBFb-RUNX1 inh: blocks binding between human CBF-beta and RUNX1; Q01196+Q13951; AlphaScreen CBFb-His/RUNX1-biotin binding, biochemical; Potency, µM (doses to about 59.8 µM), without a hit: at the top dose activity, negative = inhibition, hits mostly inhibitors; 230,000 tested, under 10 active; AID 1477; active = well fitted curve in the direction sought with a large enough effect; inconclusive = small, poorly fitted or top-dose-only effect, or effect the other way, or another doubt; inactive = no such curve, though single readings can be large or run the other way; note: % of control where 0% means no effect
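His-tagged CBF-beta and biotinylated RUNX1 (30 nM each) were premixed 20 min at room temperature, exposed to compound for 15 min, then given nickel-chelate and streptavidin AlphaScreen beads (50 ng each). After 90 min, AlphaScreen signal was read.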
MBNL1-CUG inh: inhibitors of human MBNL1 binding to CUG repeat RNA; TR-FRET MBNL1-His/biotin-(CUG)12 binding, 665/545 ratio; Potency, µM (titrated, usually from 57.5 µM), without a hit: at the top dose activity change, negative = inhibition, hits mostly inhibitors; 0.036% of 280,000 active; AID 2675; active = well fitted inhibition curve with a large enough effect in the signal ratio, with a control signal flat, not every such curve was filed as active; inconclusive = small, poorly fitted or top-dose-only effect, or effect the other way, or a change in a side signal; inactive = no such curve, though single readings can be large or run the other way; the % refers to the signal ratio; note: potency is the fitted concentration of half-maximal effect; % is set by controls: 0 for no effect and ±100 for the full control effect
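Compound titration spanned 92 nM–58 uM against the MBNL1-His/biotin-(CUG)12 complex. After 60 min at room temperature with 5 nM streptavidin-XL665 and 0.055 ng/ul terbium anti-His, ratiometric 665/545 nm emission (Ex 340 nm) normalized to controls.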
Rango dissoc inh: prevents RanGTP from dissociating the Rango-importin beta complex. O95149+P62826. Biochemical FRET Rango-importin beta, RanGTP-induced dissociation. Potency, µM (series often up to 46.1 µM), for the others: at the highest dose activity change, negative = inhibition. 0.071% of 340,000 active; note: potency is the fitted concentration of half-maximal effect; % of control where 0% means no effect; nearly all actives have a fitted effect of over 45% in size
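Compounds preincubate 5 min with complex of recombinant Rango and importin beta in PBS with 1 mM DTT. Ran (0.6 uM) loaded with 2 mM GTP plus 0.2 uM RCC1 starts dissociation; FRET is recorded 45 min later.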
ClpP mod: qHTS Assay for Activators of ClpP. ATP-dependent Clp protease proteolytic subunit (Bacillus subtilis (strain 168)), P80244. purified B. subtilis ClpP, FRET peptide cleavage, 20 min. Potency, µM (series often up to 57.5 µM), for inactives: at the highest dose activity change, negative = active. 1.9% of 340,000 active. AID 651965, 2013; active = well fitted falling curve with a large enough effect; inconclusive = small, poorly fitted or top-dose-only effect; inactive = no such curve, though single readings can be large or run the other way; note: potency is the fitted concentration of half-maximal effect; the source files actives as falling curves though it sought activators and does not explain the sign; nearly all actives have a fitted effect of over 65% in size
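Purified B. subtilis ClpP, 10 microg/mL final in Tris/HCl pH8 with KCl, BSA, glycerol and Tween-20, cleaved an Abz/nitrotyrosine-quenched decapeptide. Fluorescence (ex 320, em 430) was read at 0 and 20 min at room temperature. Delta was normalized to 5.8 microM ADEP and DMSO/no-enzyme controls.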
* = called active by the depositor; ? = inconclusive; . = no result; ! = repeats disagree; [ ] = dose if it differs, or a comment. Unless noted, calls come from the whole dose curve.

Amino acid sequences for entries named in this document (tags omitted).
ATP-dependent Clp protease proteolytic subunit (Bacillus subtilis (strain 168)), P80244, UniProt P80244, whole entry, looked up: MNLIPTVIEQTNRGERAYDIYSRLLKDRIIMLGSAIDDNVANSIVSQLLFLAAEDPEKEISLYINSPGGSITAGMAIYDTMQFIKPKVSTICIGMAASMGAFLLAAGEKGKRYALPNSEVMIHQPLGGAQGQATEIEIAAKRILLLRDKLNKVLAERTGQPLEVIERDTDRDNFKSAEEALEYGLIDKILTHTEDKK

1	Cc1ccc2nc(-c3ccc(NC(=O)COC(=O)c4cncc(Br)c4)cc3)sc2c1
2	Cc1ccccc1N(CC(=O)Nc1ccc(F)cc1)S(C)(=O)=O
3	C=CCn1c(SCC(=O)Nc2ccc(-c3nc4ccc(C)cc4s3)cc2)nnc1-c1ccccc1
4	CC(C)Nc1nc2c(S(=O)(=O)c3cccc(Cl)c3)nnn2c2ccsc12
5	Cn1ncc2c(NCc3cccc(Cl)c3)ncnc21
6	CC(C)(C)c1ccc(OCC(=O)O/N=C(\N)c2ccncc2)cc1
7	Cc1c(Cl)cccc1NC(=O)CSc1cc(-c2ccccc2)ncn1
8	COc1ccc(/C=N/N=C2/NC(=O)C(CC(=O)NC(C)C)S2)cc1 (stereo unspecified)

Screen / compound no.	1	2	3	4	5	6	7	8
Rango complex inh	?	-3%	?	.	.	-4%	.	0%
CBFb-RUNX1 inh	1%	-1%	-23%	.	.	.	.	6%
MBNL1-CUG inh	27%	-4%	?	.	.	.	.	-1%
Rango dissoc inh	-12%	19%	?	.	.	-3%	.	0%
ClpP mod	.	2%	16µM*	-7%	-1%	16µM*	0%	14µM*

One compound at a time, as listed above:
Cc1ccccc1N(CC(=O)Nc1ccc(F)cc1)S(C)(=O)=O in the list: Rango complex inh: -3%; CBFb-RUNX1 inh: -1%; MBNL1-CUG inh: -4%; Rango dissoc inh: 19%; ClpP mod: 2%
Cn1ncc2c(NCc3cccc(Cl)c3)ncnc21 in the list: Rango complex inh: .; CBFb-RUNX1 inh: .; MBNL1-CUG inh: .; Rango dissoc inh: .; ClpP mod: -1%

(more compounds)
9	O=C(Cn1cnc2c(nnn2Cc2ccc(F)cc2)c1=O)N1CCN(c2ccccc2)CC1
10	O=C(Cn1cnc2ccccc2c1=O)N1CCN(Cc2ccccc2)CC1
11	O=C(Cn1cnc2c(cnn2-c2ccccc2)c1=O)N1CCN(c2ccc(F)cc2)CC1
12	O=C(Cn1cnc2ccccc2c1=O)N1CCN(Cc2ccc3c(c2)OCO3)CC1
13	CCn1c(=O)sc2cc(NS(=O)(=O)c3ccc(C)cc3)ccc21
14	Cc1ccc(-n2ncc3c(SCc4cccc(C)c4)ncnc32)cc1
15	CCCCCOC(=O)c1c(N)n(CCOC)c2nc3ccccc3nc12
16	CCOC(=O)c1c(N)n(-c2ccc(N)cc2)c2nc3ccccc3nc12

Screen / compound no.	9	10	11	12	13	14	15	16
Rango complex inh	-1%	-1%	1%	0%	.	-6%	?	?
CBFb-RUNX1 inh	-5%	3%	2%	1%	.	3%	16%	22%
MBNL1-CUG inh	-9%	2%	-4%	4%	.	-2%	?	-3%[11.5 µM]
Rango dissoc inh	21%	-8%	-10%	9%	.	24%	?	0%
ClpP mod	25µM*	20µM*	-2%	2%	-1%	28µM*	41%	-4%

17	CCOC(=O)c1ccc(-n2c(N)c(C(=O)OC)c3nc4ccccc4nc32)cc1
18	CCOC(=O)c1c(N)n(CCOC(=O)c2cccs2)c2nc3ccccc3nc12
19	Cc1ccc(Cl)cc1N1CCN(CCCNc2ncnc3onc(-c4ccc(Cl)cc4)c23)CC1
20	COc1ccc(NC(C)c2cc(Cl)ccc2O)cc1 (stereo unspecified)
21	O=C1OCC(c2ccccc2)=C1c1ccccc1
22	CS(=O)(=O)c1ccc(C2=C(c3ccccc3)C(=O)OC2)cc1
23	COC(=O)C1=C(C(=O)OC)[C@@H]2Nc3ccccc3[C@@]23C[C@@H](C(=O)OC)N(S(=O)(=O)c2ccc(OC)cc2)C3=N1
24	O=C(Nc1ncn[nH]1)c1ccc(Cl)c(S(=O)(=O)Nc2ccc(Cl)cc2)c1

Screen / compound no.	17	18	19	20	21	22	23	24
Rango complex inh	.	?	.	-2%	-2%	-1%	.	0%
CBFb-RUNX1 inh	.	2%	.	0%	.	11%	-5%[13.1 µM]	-17%
MBNL1-CUG inh	.	?	.	-5%	8%	.	.	1%
Rango dissoc inh	.	?	.	-4%	4%	0%	.	-1%
ClpP mod	2.8µM*	7.9µM*	1%	3.2µM*	35µM*	1%	.	32µM*

25	Cc1cccc(NC(=O)CN(CC2CCCO2)C(=O)c2ccc(S(C)(=O)=O)cc2)c1C (stereo unspecified)
26	O=C(COCc1cc(-c2ccco2)on1)Nc1ccc(OC(F)(F)F)cc1
27	CCNc1nc(C)nc2c1cnn2C
28	CCNc1nc2c(cnn2C)c(=O)[nH]1
29	CC(=O)c1ccc(NC(=O)CCCSc2nc(-c3ccco3)cc(C(F)(F)F)n2)cc1
30	CC(C)N=C(N)/N=C(\N)Nc1ccc(Cl)cc1
31	NC(=NCCCCCCN=C(N)/N=C(\N)Nc1ccc(Cl)cc1)/N=C(\N)Nc1ccc(Cl)cc1

Screen / compound no.	25	26	27	28	29	30	31
Rango complex inh	2%	.	-2%	0%	.	.	52µM*!
CBFb-RUNX1 inh	.	.	.	.	.	-13%[21.7 µM]	3%
MBNL1-CUG inh	.	.	.	.	.	.	-6%
Rango dissoc inh	21%	.	4%	2%	.	.	?
ClpP mod	25µM*	1%	28µM*	-3%	-19%	.	-1%
